From patent publication US20240116877A1, “KIT KINASE INHIBITORS AND METHODS OF USE THEREOF” (Deciphera Pharmaceuticals, LLC, priority 2021, published 2024) come the findings set out here.

Chains of the proteins cited; added tags and fusions are not shown. A line that says so, or that is headed by a name, gives the form on record, which may keep a tag or linker. Residues count along the entry.
UniProt P10721, 544-976 with tags or gaps limits assumed: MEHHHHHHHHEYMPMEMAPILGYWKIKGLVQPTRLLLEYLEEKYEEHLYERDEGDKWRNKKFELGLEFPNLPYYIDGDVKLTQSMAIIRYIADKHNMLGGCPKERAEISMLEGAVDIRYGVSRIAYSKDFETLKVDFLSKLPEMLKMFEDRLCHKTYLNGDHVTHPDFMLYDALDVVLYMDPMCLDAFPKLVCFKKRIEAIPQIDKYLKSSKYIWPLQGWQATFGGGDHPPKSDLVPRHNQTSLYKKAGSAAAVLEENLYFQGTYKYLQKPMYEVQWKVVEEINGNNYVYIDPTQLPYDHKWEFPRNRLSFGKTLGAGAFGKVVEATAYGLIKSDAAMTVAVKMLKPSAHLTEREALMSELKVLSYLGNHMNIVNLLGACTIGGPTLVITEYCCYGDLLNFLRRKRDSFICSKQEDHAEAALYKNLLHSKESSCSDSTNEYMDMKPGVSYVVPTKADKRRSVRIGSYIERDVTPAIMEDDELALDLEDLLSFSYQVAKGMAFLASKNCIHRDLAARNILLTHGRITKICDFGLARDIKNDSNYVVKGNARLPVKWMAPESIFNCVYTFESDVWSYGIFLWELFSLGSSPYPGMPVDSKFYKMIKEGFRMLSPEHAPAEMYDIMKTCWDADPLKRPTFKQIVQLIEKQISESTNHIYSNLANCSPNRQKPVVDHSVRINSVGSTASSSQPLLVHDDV

The target of assay [1] is c-KIT kinase (uKIT) (Homo sapiens (Human), UniProt P10721). The experiment in a line: Biochemical Assay for uKIT (coupled pyruvate kinase/lactate dehydrogenase assay). The settings on record: read-out: uKIT IC50; Inhibition of biochemical activity of uKIT kinase; 1 mM ATP.
In assay [2] the test system is Ba/F3 KIT mutant cells. Put plainly: Ba/F3 mutant KIT Cell Proliferation Assays (resazurin). The procedure: Ba/F3 KIT Mutant Cell Line Transduction and Expansion
Several different KIT cDNA encoding various primary and secondary mutations were cloned into a pLV(Exp]-CMV>(cDNA):IRES:puro vector. These vectors were constructed and packaged by VectorBuilder.
Exponentially grown Ba/F3 cells (1×10^6 cells in 1 ml medium) were infected with 60 μl of viral suspension in a 6-well plate in the presence of mIL-3 (10 ng/ml) and polybrene (7.5 μg/ml) (Vector Builder) and incubated for 16 h. After 16 h, the cells were centrifuged, and viral supernatant was discarded. The cells were then re-suspended in fresh medium and allowed to recover for another day. After 72 h post infection, the cells were seeded with complete medium with mIL-3 and with 1 μg/ml puromycin added to medium for selection. After 48 h, cells without viral infection die, whereas successfully transduced cells were collected and changed to fresh medium with 5 ng/ml of IL-3. After a week or two with gradual withdrawal of mIL3 the cells that can continue to proliferate in the absence of mIL3 were exponentially expanded and were frozen down for banking.
Ba/F3 mutant KIT Cell Proliferation Assays
(§1) A serial dilution of test compound was dispensed into a 384-well black clear bottom plate (Corning, Corning, NY). Six hundred and twenty-five cells were added per well in 50 μL complete growth medium. Plates were incubated for 68 h at 37° C., 5% CO2, 95% humidity. At the end of the incubation period 10 μL of a 440 μM solution of resazurin (Sigma, St. Louis, MO) in PBS was added to each well and incubated for an additional 5 h at 37° C., 5% CO2, 95% humidity. Plates were read on a Synergy2 reader (Biotek, Winooski, VT) using an excitation of 540 nm and an emission of 600 nm. Data was analyzed using Prism software (Graphpad, San Diego, CA) to calculate IC50 values.
(Resazurin is reduced to fluorescent resorufin, in cell work by metabolically active cells.)

For assay [3], the system named is GIST 430 cells. The experiment in a line: GIST 430 Cell Proliferation Assay (resazurin). Particulars: read-out: GIST430 IC50. The procedure:
GIST 430 Cell Proliferation Assay
as §1, with “a 96-well” for “a 384-well”, “NY). Five thousand” for “NY). Six hundred and twenty-five”, “in 200” for “in 50”, “for 115” for “for 68”, “at 37 degrees Celsius,” for “at 37° C.,”, “period 40” for “period 10”

Where [4] appears, read: read-out: AYdup-D816G IC50, Ba/F3 KIT AYdup-D816G mutant cell proliferation.
[5] abbreviates: read-out: AYdup-V654A IC50, Ba/F3 KIT AYdup-V654A mutant cell proliferation.
Setting [6] is: read-out: exon11del-V654A IC50, Ba/F3 KIT exon11del-V654A mutant cell proliferation.
The mark [7] stands for this setting: read-out: exon11del-Y823D IC50, Ba/F3 KIT exon11del-Y823D mutant cell proliferation.

Structures are written as SMILES. Where two headings read alike, the source gives them in different places. Bounds are passed on as bounds.

With `COCCOc1cc(F)c2c(Nc3ccc(NC(=O)NCCC4CCC4)cc3)ncnc2c1`, the IC50 in assay [1] is under 10 nM; in assay [2] (setting [4]), under 10 nM; in assay [2] (setting [5]) it was under 10 nM; in assay [2] (setting [6]) it was under 10 nM; in assay [2] (setting [7]), 10 to 100 nM; in assay [3] it was 10 to 100 nM.
Consider `COCCOc1cc(F)c2c(Nc3ccc(NC(=O)NCCC(C)(C)C)nc3)ncnc2c1`, for which the IC50 is 10 to 100 nM in assay [1]; 100 to 1000 nM in assay [2] (setting [4]); 100 to 1000 nM in assay [2] (setting [5]); 100 to 1000 nM in assay [2] (setting [6]); 100 to 1000 nM in assay [2] (setting [7]); 100 to 1000 nM in assay [3].
On to `O=C(NCCC1CCOCC1)Nc1ccc(Nc2ncnc3cc(OCCN4CCOCC4)cc(F)c23)cc1`, for which the IC50 in assay [1] is 10 to 100 nM; in assay [2] (read-out: AYdup IC50, Ba/F3 KIT AYdup mutant cell proliferation), under 10 nM; in assay [2] (setting [4]), under 10 nM; in assay [2] (setting [5]) it was 10 to 100 nM; in assay [2] (setting [6]), under 10 nM; in assay [2] (setting [7]), 10 to 100 nM. In addition, in assay [3], the IC50 was under 10 nM.

Broadly, the IC50 is the point on the concentration scale where inhibition reaches its midpoint.
